Reference: patent US9725477B2, “Platinum compounds of malonic acid derivative having leaving group containing amino or alkylamino” (BEIJING FSWELCOME TECHNOLOGY DEVELOPMENT CO., LTD, priority 2012, dated 2017)

Assay: Solubility in water
Details: compound of the example (salt form) in water

Substance	solubility
2-(4-diethylaminobutyl)-malonate•cis-dicyclopentylamine platinum (II) acetate [Compound 25]	more than 300 mg/ml
2-(2-diethylaminobutyl)-malonate•cis-1,2-(1,2-dihydroxymethyl)-ethylenediamine platinum (II) phosphate [Compound 20]	more than 300 mg/ml
2-(4-diethylaminobutyl)-malonate•cis-ammonia•cyclopentylamine platinum (II) acetate [Compound 26]	more than 300 mg/ml
2-(4-ethyl aminobutyl)-malonate•cis-(1, 2-trans-cyclohexanediamine) platinum (II) phosphate [Compound 12]	more than 300 mg/ml
2-(4-diethylaminobutyl)-malonate•cis-(2-aminomethyl-cyclopentylamine) platinum (II) acetate [Compound 27]	more than 300 mg/ml
2-(4-diethylaminobutyl)-malonate•cis-(1, 2-trans-cyclopropanediamine) platinum (II) phosphate [Compound 16]	more than 300 mg/ml
2-(4-di-n-propylaminobutyl)-malonate•cis-diamine platinum (II) phosphate [Compound 7]	more than 300 mg/ml
